Source: US20200121812A1 (Teva Pharmaceuticals International GmbH, priority 2015, published 2020)

Test system: dopamine in the striatum
Test: Microdialysis in Sprague-Dawley rats
Type: in vivo
Details: 50 mg/kg ip, compared to conventional L-DOPA, FIG. 1

[2H]C([2H])(c1ccc(O)c(O)c1)[C@]([2H])(N)C(=O)O [Deulevodopa]
half life of deu-dopamine in the striatum/brain: more than doubled
